Reference: patent US20260098037A1, “COMPOUND CONTAINING MULTI-FUSED RING STRUCTURE” (Chia Tai Tianqing Pharmaceutical Group Co., Ltd., priority 2023, published 2026)

The chains behind the UniProt entries cited, without tags or fusion partners. Residues count along the entry.
UniProt P43220, 24-463 limits assumed: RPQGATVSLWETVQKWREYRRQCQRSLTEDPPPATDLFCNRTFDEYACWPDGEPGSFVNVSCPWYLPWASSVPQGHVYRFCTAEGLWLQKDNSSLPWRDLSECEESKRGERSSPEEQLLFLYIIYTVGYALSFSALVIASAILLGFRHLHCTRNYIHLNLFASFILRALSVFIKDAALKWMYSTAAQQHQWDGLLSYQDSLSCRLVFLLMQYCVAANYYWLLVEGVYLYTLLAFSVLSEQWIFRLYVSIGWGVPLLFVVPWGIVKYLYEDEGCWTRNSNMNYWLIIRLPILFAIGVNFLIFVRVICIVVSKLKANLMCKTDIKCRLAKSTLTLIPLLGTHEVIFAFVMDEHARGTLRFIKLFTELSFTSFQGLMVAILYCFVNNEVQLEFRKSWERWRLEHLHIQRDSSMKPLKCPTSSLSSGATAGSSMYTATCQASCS

Legend:
[1] = In vitro stability assay in liver microsome (MLM); conditions: liver microsome 0.5 mg/mL, NADPH+MgCl2, PBS pH 7.4, 1 h
Experimental: (§1) Liver microsome incubation samples were prepared by mixing a PBS buffer (pH 7.4), a liver microsome solution (0.5 mg/mL), a test compound, and an NADPH+MgCl2 solution, and incubated at […] and 300 rpm for 1 h. Zero-hour samples were prepared by mixing a PBS buffer (pH 7.4), a liver microsome solution (0.5 mg/mL), and a test compound. An acetonitrile solution containing an internal standard was added to the samples, and supernatants were prepared by protein precipitation, diluted, and then assayed by LC/MS/MS.

[2] = In vitro stability assay in liver microsome (HLM); conditions: liver microsome 0.5 mg/mL, NADPH+MgCl2, PBS pH 7.4, 1 h
Experimental: as §1

GLP1R = GLP1R (Homo sapiens, UniProt P43220); experiment: In vitro cellular cAMP expression activity assay (CRE-luciferase reporter); conditions: read-out: HEK293/CRE-Luc/GLP-1R EC50; HEK293/CRE-Luc/GLP1R cells, 6 h incubation, luciferase luminescence
Experimental: HEK293/CRE-Luc/GLP1R cells (manufacturer: GenScript Biotech Corporation) in a good growth state were taken, washed with PBS, and digested with pancreatin. The digestion was terminated with a complete medium. The cells were collected into a centrifuge tube, adjusted to a cell density of 4×10^5 cells/mL using a DMEM+2% FBS medium, seeded in a 96-well plate (100 μL/well), and incubated at 37° C. for 1 h. After 1 h, the compounds were added using a nanoliter pipettor such that the final concentrations of the compounds were 10 nM-0.0006 nM. The compounds were added in duplicate, and a control was set. After the cells were incubated in a cell incubator for another 6 h, a detection reagent Luciferase (manufacturer: Vazyme Biotech, 50 μL/well) was added. The plate was left to stand at room temperature for 3 min to fully lyse the cells, and the luminescence was detected on a PerkinElmer Envision microplate reader. A dose-response curve was fitted by four-parameter analysis, and the EC50 was calculated.

[3] = tested on: GLP-1R humanized C57BL/6J mice; experiment: Evaluation of hypoglycemic effect in mice (intraperitoneal glucose challenge); conditions: intragastric dose 1 mg/kg, glucose 2 g/kg ip 5 h after administration
Excerpt: GLP-1R humanized C57BL/6J mice of 20-22 g were used in this study after 3 days of acclimatization. All the animals were deprived of food but not water until the end of study. Blood samples were collected from the tail tip of the mice.
The test animals were deprived of food but not water overnight before the study. The next day, blood was collected from all the animals for blood glucose testing, and the animals were randomized into a normal control group, a positive control group, and test compound groups by blood glucose and body weight, with 6 animals in each group. The groups were then given intragastric doses, and 5 h after the administration, an intraperitoneal injection of glucose solution (2 g/kg) was given. The blood glucose concentration was measured at 0.25 h, 0.5 h, 1 h, 2 h, and 3 h after the glucose injection. The blood glucose was recorded throughout the study, and the area under the blood glucose-time curve AUC0-180 min Glu was calculated.

[4] = In vivo pharmacokinetic evaluation in mice; conditions: ICR mice; for AUC(0-24) / AUC(0-∞): plasma
Experimental: ICR mice of 18-22 g were randomized into 4 groups of 9 mice after 3-5 days of acclimatization. […]
The test animals (ICR mice) were fasted from 12 h pre-dose to 4 h post-dose, and given free access to water throughout the study.
Orbital blood samples of about 0.1 mL were collected at 15 min, 30 min, 1 h, 2 h, 3 h, 4 h, 6 h, 8 h, 10 h, and 24 h post-dose for the intragastric administration, and at 5 min, 10 min, 30 min, 1 h, 2 h, 4 h, 6 h, 8 h, 10 h, and 24 h post-dose for the intravenous administration. The blood sampling was performed at 3-4 time points for each mouse, 3 mice per time point. The collected whole blood was transferred into EDTA-K2-containing centrifuge tubes and stored at 4° C., and, within 1 h, centrifuged at 4° C. at 4000 rpm for 10 min to separate the plasma. All the plasma samples were immediately stored after collection at −20° C. for testing.
30 μL of the plasma sample to be tested and a standard curve sample were pipetted and added with 300 μL of an acetonitrile solution containing an internal standard (20 ng/mL of diazepam). The mixture was shaken to mix well for 5 min, and centrifuged at 13,000 rpm for 10 min. 80 μL of the supernatant was taken and diluted with 80 μL of ultrapure water. After a thorough mixing, 2 μL of the resulting sample was taken for liquid chromatography-mass spectrometry, and the chromatogram was recorded.

**Q.** What does the source list for `Cc1cc(-n2nc3c(c2-n2ccn(-c4cc5c(cc4F)C4(CC4)C(=O)N5C)c2=O)[C@H](C)N(C(=O)c2cc4cc([C@H]5CCOC(C)(C)C5)ccc4n2[C@@]2(c4noc(=O)[nH]4)C[C@@H]2C)CC3)cc(C)c1F`?
**A.** MLM Remaining (T = 60 min) [1]: 87.72%; HLM Remaining (T = 60 min) [2]: 87.69%; EC50 (GLP1R): < 0.5 nM; AUC0-180 min Glu reduction (%) [3]: 80%; Absolute bioavailability F ([4]; ig 3 mg/kg vs iv 0.5 mg/kg): 42.42%; MRT(0-24) ([4]; ig, dose 3 mg/kg): 9.28 h; t½ ([4]; ig, dose 3 mg/kg): 5.40 h; AUC(0-24) ([4]; ig, dose 3 mg/kg): 6215 ng·h/mL; AUC(0-∞) ([4]; ig, dose 3 mg/kg): 6539 ng·h/mL; MRT(0-24) ([4]; iv, dose 0.5 mg/kg): 5.00 h; t½ ([4]; iv, dose 0.5 mg/kg): 5.35 h; AUC(0-24) ([4]; iv, dose 0.5 mg/kg): 2505 ng·h/mL; AUC(0-∞) ([4]; iv, dose 0.5 mg/kg): 2569 ng·h/mL
